{"sequences": {"note": "Amino acid sequences for entries named in this document (tags omitted). Residues count along the entry.", "UniProt P16410, 36-161": "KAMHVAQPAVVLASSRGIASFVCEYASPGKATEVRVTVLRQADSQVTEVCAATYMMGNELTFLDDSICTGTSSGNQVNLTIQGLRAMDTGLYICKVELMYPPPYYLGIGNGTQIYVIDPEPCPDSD", "UniProt P42081, 24-247": "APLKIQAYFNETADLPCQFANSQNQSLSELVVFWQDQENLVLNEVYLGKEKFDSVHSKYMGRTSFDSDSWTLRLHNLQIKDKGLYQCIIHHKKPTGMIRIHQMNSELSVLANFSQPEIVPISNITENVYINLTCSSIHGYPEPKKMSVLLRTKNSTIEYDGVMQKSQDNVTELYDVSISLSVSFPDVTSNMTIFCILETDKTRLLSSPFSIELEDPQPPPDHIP"}, "source": "paper PMC4740375", "origin": "cited, not measured here", "target": "CTLA-4 (Homo sapiens) (UniProt P16410)", "note": "pKd: −log10 of the molar value."}
{"substance": "CD86 (from UniProt P42081)", "values": [{"measurement": "pKd", "value": 5.70}]}
